# Molecular target: SARS-CoV-2 3CL^pro (Severe acute respiratory syndrome coronavirus 2, UniProt P0DTD1)
# Format: biochemical
smiles,measurement,value
CO[C@H]1C[C@@H]2CC[C@@H](C)[C@@](O)(O2)C(=O)C(=O)N2CCCC[C@H]2C(=O)O[C@H]([C@H](C)C[C@@H]2CC[C@@H](O)[C@H](OC)C2)CC(=O)[C@H](C)/C=C(\C)[C@@H](O)[C@@H](OC)C(=O)[C@H](C)C[C@H](C)/C=C/C=C/C=C/1C [Rapamycin],inhibition of 3CL^pro (in words),did not inhibit
